Patent US10137210B2, “Thioflavin derivatives for use in antemortem diagnosis of Alzheimer's disease and in vivo imaging and prevention of amyloid deposition” (UNIVERSITY OF PITTSBURGH—OF THE COMMONWEALTH SYSTEM OF …, priority 2000, dated 2018)

Tests used:
[1] = tested on: plaques and cerebrovascular amyloid; assay: Autoradiography of [I-125]6-OH-BTA-0-3′-I on fresh frozen post-mortem AD brain versus X-34 stain; assay type: binding, human
Excerpt: Left: autoradiogram of [I-125]6-OH-BTA-0-3′-I binding to fresh frozen tissue from post-mortem AD brain. The dark areas show the localization of [I-125]6-OH-BTA-0-3′-I and are outlined in red. The structure of [I-125]6-OH-BTA-0-3′-I is shown in the lower left. Right: The same piece of post-mortem AD brain tissue stained with the amyloid dye, X-34. Bright areas indicate plaques and cerebrovascular amyloid. […] Bar represents 1000 μm.

[2] = In vivo brain uptake and retention in mice; set-up: species or system mouse; conditions: Table 1 lower part
Excerpt: In Table 1 below are five different ^11C-labeled BTA derivatives where their in vitro binding properties, log P values, and in vivo brain uptake and retention properties in mice have been determined.

SMILES	correspondence of binding to plaques and cerebrovascular amyloid stained by X-34 [1]	2:30 min ratio [2]
Nc1ccc(-c2nc3ccc(O)cc3s2)cc1[125I] [[I-125]6-OH-BTA-0-3′-I, 2-(3′-Iodo-4′-aminophenyl)-6-hydroxybenzathiazole]	nearly 1:1 correspondence	
Nc1ccc(-c2nc3ccc(O)cc3s2)cc1[125I] [drawing 25]		15.7
